Yeast mating assay 2: variants of the scFv Ab-91

Source: Engelhart et al. 2022 (doi:10.1038/s41597-022-01779-4), MIT Lincoln Laboratory and A-Alpha Bio; data file from the FLAb repository.

Target peptide (SARS-CoV-2 spike, HR2 region): PDVDLGDISGINAS

The variants keep the light chain, the linker and the frameworks of Ab-91 (scFv order VL, a 15-residue (Gly4Ser)3 linker, VH).
VL: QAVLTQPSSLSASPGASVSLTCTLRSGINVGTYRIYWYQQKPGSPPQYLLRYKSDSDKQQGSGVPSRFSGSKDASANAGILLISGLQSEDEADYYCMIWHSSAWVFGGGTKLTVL
VH: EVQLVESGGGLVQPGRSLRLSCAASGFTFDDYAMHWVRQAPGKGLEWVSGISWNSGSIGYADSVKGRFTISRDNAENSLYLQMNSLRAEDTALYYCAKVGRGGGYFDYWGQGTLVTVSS

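Phage display of a naive human antibody library on the peptide gave the parent. AAYL51 was designed without a model: most single CDR substitutions and a random sample of double and triple ones. Affinity was read by AlphaSeq, a pooled yeast mating assay with surface-displayed partners. Binding brings cells together so that they mate, and sequencing counts the barcode pairs among the diploids. Scores were corrected for input abundance and mapped to Kd with protein pairs of known affinity run in the same pool. Mating was done three times.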

The parent's heavy chain CDRs are GFTFDDYAMH, GISWNSGSIGYADSVK, VGRGGGYFDY; each variant's own CDRs replace them letter for letter.
Values are log10 of the apparent Kd in nM; lower means stronger binding.
Replicates are averaged; those with no signal do not enter the mean.
A pair that was not seen in that replicate is written "ND"; this usually means weak binding, but a binder can also be missed.

With GFTMDDYAMH, GISWNSGSYGYADSVK, AGRGGGYFDY the result was ND, ND, ND (controls 0 of 9).
With CFTFDDYAMH, GISWNSHSIGYADSVK, VGRGGGHFDY the result was 4.26, ND, ND (controls 5 of 9).
With GFTFDDYAMH, GISGNSGSIGFADSVK, VGRGGGYFDS the result was 1.82, 2.49, 1.61 (mean 1.97; controls 1 of 9).
With GYTFDDYAMH, GISWNSGSIGYADSVK, VGRGGGPFYY the result was 1.53, 1.46, 1.04 (mean 1.34; controls 6 of 9).
With GFTFDDYAMH, GISDESGSIGYADSVK, VGRGAGYFDY the result was 3.63, 3.86, ND (mean 3.75; controls 7 of 9).
With GFTFDDYAMH, GISWNSGSIDYADSFK, VGRGGGPFDY the result was ND, ND, ND (controls 0 of 9).
With GFTFDKYDMH, GISWNSGSVGYADSVK, VGRGGGYFDY the result was 1.73, 2.22, 1.21 (mean 1.72; controls 0 of 9).
With GFTFDDYAMH, GISWNWGSYGYADSVK, VGRGGGYDDY the result was 3.98, 4.86, 4.89 (mean 4.58; controls 8 of 9).
With GFTFDDYAMT, GISWNSGSIMYADSVK, VGGGGGYFDY the result was 3.98, 4.83, 5.49 (mean 4.77; controls 6 of 9).
With WFTFDDYAMH, GISWNSGSIGYADCVK, VGRGGGYFDY the result was ND, ND, ND (controls 0 of 9).
With GFTFDDYAMH, GIFWNSGSIGYADTVK, VGRGGGYPDY the result was ND, ND, ND (controls 1 of 9).
With GETFDDYAMH, GISWNSGHIGYADSVK, VGRGGGYFDY the result was 3.99, 3.53, 4.73 (mean 4.09; controls 0 of 9).
With GFTFDDYAMH, GISWNSGSIGYADLVK, VVRGGGYFDY the result was 4.86, ND, ND (controls 2 of 9).
With GFTFDDYAMH, GISWNSGSIGYADSVL, VGIGGGYIDY the result was ND, ND, ND (controls 0 of 9).
With GFTFDDYAMH, GISWNSDSMGYADSVK, VGRGGGSFDY the result was 1.25, 0.97, 0.70 (mean 0.97; controls 4 of 9).
With GNTVDDYAMH, GISWNSGSCGYADSVK, VGRGGGYFDY the result was 3.52, ND, ND (controls 2 of 9).
With GFGFDDYAMH, VISWNSLSIGYADSVK, VGRGGGYFDY the result was ND, ND, ND (controls 0 of 9).
With GFTFISYAMH, GIMWNSGSIGYADSVK, VGRGGGYFDY the result was 5.00, 6.66, ND (mean 5.83; controls 5 of 9).
With GFTFLDYAMH, GSSWNSGSIGYADSVK, VGRGGGYFSY the result was 3.39, ND, ND (controls 1 of 9).
With GFTFDDYAMH, PNSWNSGSCGYADSVK, VGRGGGYFDY the result was ND, 4.00, ND (controls 0 of 9).
With GFTFMDYAMH, GISWNSGSIGYADSVK, VGRGGGYEDY the result was 1.47, 1.91, 0.91 (mean 1.43; controls 0 of 9).
With GFTFDDYAMH, GISWNSGSIGYLDSVK, VGRGGGAFDY the result was 3.24, 3.05, 2.86 (mean 3.05; controls 3 of 9).
With GFTFDDYAMH, GISSNSGSIGDADDVK, VGRGGGYFDY the result was 3.89, 3.95, ND (mean 3.92; controls 0 of 9).
With GFTFDAYAMH, GMSWNSGSIGCADSVK, VGRGGGYFDY the result was ND, ND, ND (controls 0 of 9).
With GFTFDDYAMH, GIIWNSGSIGYAHSVK, VGRPGGYFDY the result was ND, ND, ND (controls 0 of 9).
With GFTFDDYAMI, GISWNSGSAGYACSVK, VGRGGGYFDY the result was ND, ND, ND (controls 0 of 9).
With GFTFDDYAMH, GITWNSGSIGYADSVK, VGRYGGCFDY the result was 5.51, ND, 3.88 (mean 4.69; controls 4 of 9).
With GLTFDDYDMH, GISWNSGSIGYADSVK, VGRGGGYFDY the result was ND, 4.16, ND (controls 1 of 9).
With GFTFPDYAMH, GISWNSGSIGYADSVK, VGKGGGYFDI the result was 1.14, 1.12, 0.47 (mean 0.91; controls 3 of 9).
With GFTFDDYAMH, GDSWNSVSIGYADSVK, VGRGLGYFDY the result was ND, ND, ND (controls 2 of 9).
With EFTFDDYAMH, GISWNSGLIGCADSVK, VGRGGGYFDY the result was ND, ND, ND (controls 0 of 9).
With GFTFDDYYMQ, GISWNKGSIGYADSVK, VGRGGGYFDY the result was ND, ND, 4.96 (controls 4 of 9).
With GDTFDDYAMH, GWSWNSGSIPYADSVK, VGRGGGYFDY the result was 6.17, ND, 5.17 (mean 5.67; controls 3 of 9).
With GFTFCDYTYH, GISWNSGSIGYADSVK, VGRGGGYFDY the result was ND, ND, ND (controls 2 of 9).
With QFTFDDYAMH, GISWNSGSIGYAMSVK, VGRGGGYMDY the result was 4.79, 4.63, ND (mean 4.71; controls 6 of 9).
With GFTFDDYAMH, GISWNSGRIGYADSVP, VGRGGGYFDY the result was ND, ND, ND (controls 0 of 9).
With GFTFDDYAMH, GISWNSGSIGYADSVW, VGPGGGSFDY the result was ND, ND, ND (controls 0 of 9).
With GFTFDDYAMY, GISWNHGSIRYADSVK, VGRGGGYFDY the result was ND, ND, ND (controls 0 of 9).
With GFTFDDYAMH, GISWNSGFIGDADSVK, VGRGGGYFDY the result was 3.91, ND, ND (controls 0 of 9).
With GFTFDDYAMH, GISWNSCSIGYADSVK, VGRGMGYPDY the result was 2.56, 2.83, 2.25 (mean 2.54; controls 5 of 9).
With GFTFDLYAMH, GISWNSGSIGNADSVK, LGRGGGYFDY the result was 4.44, ND, ND (controls 0 of 9).
With GNTFDDYAMH, GISWNSGSIGYADSVK, VGDGGGYFDQ the result was ND, ND, ND (controls 1 of 9).
With GFTFDDYAMH, GISWNSGSIGYEYSVK, VGRGGGYFDY the result was ND, ND, ND (controls 2 of 9).
With GFTFDDYAMH, GISWQSGSIGYADSVK, VGREGGMFDY the result was 3.58, ND, ND (controls 1 of 9).
With GFQFDDYAMH, GISNNSGSVGYADSVK, VGRGGGYFDY the result was 2.63, 2.59, 2.49 (mean 2.57; controls 4 of 9).
With GFTFPDYRMH, GISWNSGSIGAADSVK, VGRGGGYFDY the result was ND, ND, ND (controls 0 of 9).
With GFTFADLAMH, GISWNSGSIGYADSVK, VGRGGGYFGY the result was 4.72, ND, 4.03 (mean 4.38; controls 4 of 9).
With GFTFDDYAMH, GISWNITSIGYADSVK, VGRQGGYFDY the result was 3.78, 5.49, ND (mean 4.63; controls 1 of 9).
With GFTFDDYAMH, GISWNSGSIKYADSVK, QGRFGGYFDY the result was ND, 3.10, ND (controls 0 of 9).
With GFTFDDYAMH, GISWNSGSIGYADSVM, VGRGGGYFDY the result was 2.14, 2.03, 1.83 (mean 2.00; controls 3 of 9).

In this assay the parent's reference entry averaged 1.86; its copy inside this library read 0.88.
Three control strains display no target. For library AAYL51, 21% of the pairings with them gave a signal, with a median of 4.54 and one signal in twenty below 3.26, so weak values seen in few replicates may be background. Also given: how often the same scFv was detected with the empty control strains.